Experimental data as given in publication doi:10.1101/330266 (bioRxiv, 2019).

Molecular target: the molecule itself
Test: thioflavin T

B1: Full-length (FL) P301L tau (2N4R; […]) (natural protein)
chain: not shown
binding result: binds
